Laboratory results taken from patent US6376617B1, “Bioactive derivatives of camptothecin” (Pharmacia & Upjohn S.p.A., priority 1997, dated 2002).

System: human colon carcinoma (HT29)
Experiment: Antitumor activity on human colon carcinoma (HT29) transplanted in nude mice
Details: for Tox: HT29 sc in nude mice, iv q4dx8
Description: Tumor fragment were implanted sc. Treatment started when tumor was palpable. TI % (tumor inhibition %) was calculated at day 46.

## copolymer of N-(2-hydroxypropyl)methacrylamide, {7-ethyl-10-hydroxy-20-O-[N-methacryloyl-glycyl-L-phenylalanyl-L-leucyl-glycyl]camptothecin} and N-(2-hydroxypropyl)methacryloylglycinamide [A1]
HT29 in nude mice, i.v. route, all tested doses
  toxicity (in words): non toxic
Dose 5 mg/kg, total dose 40 mg/kg
  Tox: 0/7
Dose 10 mg/kg, total dose 80 mg/kg
  Tox: 0/7
Dose 20 mg/kg, total dose 160 mg/kg
  Tox: 0/7
